From patent US6689753B1, “β sheet breaker peptide analogs that inhibit β pleated sheet formation in amyloid β-peptide” (Axonyx, Inc., priority 1999, dated 2004) come the findings set out here.

Amino acid sequences for entries named in this document (tags omitted). Residues count along the entry.
UniProt P05067, 672-711: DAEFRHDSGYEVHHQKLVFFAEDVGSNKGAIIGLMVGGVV

The experiment deals with Aβ1-40 (Homo sapiens, UniProt P05067). Nature of the experiment: In vitro amyloid formation assay, thioflavine T fluorescence. The class given is biochemical. Particulars: Aβ incubated with peptide, ThT fluorescence, FIG. 5a.

Take “Aβ1-16: short Aβ fragment (DAEFRHDSGYEVHHQK; Amyloid-beta protein 42; UniProt P05067 672-687, looked up, fragment)”: the “activity in inhibiting amyloid formation (fibrillogenesis)” value was “no effect on fibrillogenesis or slightly increased amyloid formation”.
